In this series the test system is indicator molecule containing the cleavable sequence (GPQGIFGQ) with a terminal biotin group connected via a polyethylene glycol spacer/linker, intact.

Regarding MMP13 (Enzo), the reader value at 0.5 µg/ml MMP (lateral flow) was found to be 6350 reader units.

Source of the values: patent publication US20200241008.
